# Binding of CDR-mutated scFvs to a peptide of the spike HR2 region

Values reported by Engelhart et al. 2022, doi:10.1038/s41597-022-01779-4 (FLAb copy).

The target is the same throughout: PDVDLGDISGINAS, from the HR2 region of SARS-CoV-2 spike.

Ab-14 is the parent antibody, in scFv form: VH, then a (GGGGS)3 linker, then VL. The light chain is unchanged in all variants.
VH: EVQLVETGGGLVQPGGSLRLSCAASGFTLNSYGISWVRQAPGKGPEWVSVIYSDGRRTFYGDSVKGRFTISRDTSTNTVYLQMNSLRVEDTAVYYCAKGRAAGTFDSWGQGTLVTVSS
VL: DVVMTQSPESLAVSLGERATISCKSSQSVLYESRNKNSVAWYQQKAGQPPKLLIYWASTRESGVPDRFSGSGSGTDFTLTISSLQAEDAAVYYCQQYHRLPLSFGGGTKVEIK

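The starting antibody came from a phage panning campaign against this peptide. AAYL49 was designed without a model: most single CDR substitutions and a random sample of double and triple ones. AlphaSeq pools MATa yeast showing the antibodies with MATalpha yeast showing the peptide. The frequency of each diploid, read from paired DNA barcodes, reflects how well the two displayed proteins bind. Each replicate has its own calibration line, from reference interactions of the BCL2 family. The assay was run in three technical replicates.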

Each variant's VH is given in full. This list gathers variants with a substitution at R57 (VH, numbered from residue 1). Kd is apparent (estimated from mating counts) and averaged on the log scale over replicates with a signal. Smaller is tighter. "no signal" means that the variant was in the library but no mating with the target was seen in any replicate; the authors take this as a sign of poor binding, and no number exists.

Variant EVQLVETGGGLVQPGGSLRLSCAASGFTLNSYGIDWVRQAPGKGPEWVSVIYSDGRNTFYGDSVKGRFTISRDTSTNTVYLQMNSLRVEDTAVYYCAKGRATGTFDSWGQGTLVTVSS showed 3.6 µM (1 of 3 replicates). Variant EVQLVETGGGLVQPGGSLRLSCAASGDTLNSYGISWVRQAPGKGPEWVSVIISDGRLTFYGDSVKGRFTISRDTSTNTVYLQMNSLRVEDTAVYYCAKGRAAGTFDSWGQGTLVTVSS showed no signal (0 of 3 replicates). With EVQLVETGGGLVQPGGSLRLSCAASGFTLNSYGISWVRQAPGKGPEWVSVIYSDGRQTFYGDSVKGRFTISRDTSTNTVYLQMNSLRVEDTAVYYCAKGRAEGTFDSWGQGTLVTVSS the result was 2.6 µM (1 of 3 replicates). For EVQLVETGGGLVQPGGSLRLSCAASGFTLNSYGISWVRQAPGKGPEWVSVIYSDGRLTFYGDSHKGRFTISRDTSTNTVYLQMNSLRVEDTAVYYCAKGRAAGIFDSWGQGTLVTVSS, the assay gave 3.7 µM (1 of 3 replicates). With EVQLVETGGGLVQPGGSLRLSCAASTFTLNSYGISWVRQAPGKGPEWVSVIYSDGRNTFYGDSVKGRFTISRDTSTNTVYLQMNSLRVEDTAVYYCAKGRAAGTFDSWGQGTLVTVSS the result was 22 µM (2 of 3 replicates). Variant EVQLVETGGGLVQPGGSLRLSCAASGFTLNSYYISWVRQAPGKGPEWVSVIYSDGRDTFYGDSVKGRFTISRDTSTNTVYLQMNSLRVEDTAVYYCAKGSAAGTFDSWGQGTLVTVSS gave no signal (0 of 3 replicates).

Variant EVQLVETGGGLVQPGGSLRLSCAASAFTLNSYGISWVRQAPGKGPEWVSVIYSDGRTTFYGDSVKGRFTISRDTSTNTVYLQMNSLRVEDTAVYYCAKGRAAGTDDSWGQGTLVTVSS gave 6.4 µM (2 of 3 replicates). With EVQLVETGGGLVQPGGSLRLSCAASGFTLNSYGASWVRQAPGKGPEWVSVIYSDGTVTFYGDSVKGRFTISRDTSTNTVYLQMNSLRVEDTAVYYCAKGRAAGTFDSWGQGTLVTVSS the result was no signal (0 of 3 replicates). Variant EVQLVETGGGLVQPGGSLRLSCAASGFPLNSYGIMWVRQAPGKGPEWVSVIYSDGRCTFYGDSVKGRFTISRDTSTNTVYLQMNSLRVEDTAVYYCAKGRAAGTFDSWGQGTLVTVSS showed 1.4 µM (1 of 3 replicates). With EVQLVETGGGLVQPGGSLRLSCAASGFTLNSYGISWVRQAPGKGPEWVSVDYSDGEYTFYGDSVKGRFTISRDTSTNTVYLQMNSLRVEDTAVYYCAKGRAAGTFDSWGQGTLVTVSS the result was no signal (0 of 3 replicates). For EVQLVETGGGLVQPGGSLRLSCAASGFTLNSYGVSWVRQAPGKGPEWVSVIYSDGRFTFYGDDVKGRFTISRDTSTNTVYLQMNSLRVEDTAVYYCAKGRAAGTFDSWGQGTLVTVSS, the assay gave 32 µM (2 of 3 replicates). For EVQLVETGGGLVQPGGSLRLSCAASGFTLNSYGISWVRQAPGKGPEWVSVFYSWGRGTFYGDSVKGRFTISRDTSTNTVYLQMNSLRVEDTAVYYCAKGRAAGTFDSWGQGTLVTVSS, the assay gave no signal (0 of 3 replicates).

Variant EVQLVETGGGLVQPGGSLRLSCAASGFTTNSYGESWVRQAPGKGPEWVSVIYSDGRATFYGDSVKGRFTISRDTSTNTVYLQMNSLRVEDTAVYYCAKGRAAGTFDSWGQGTLVTVSS gave no signal (0 of 3 replicates). With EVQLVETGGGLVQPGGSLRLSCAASGFTLNSYGISWVRQAPGKGPEWVSVIYSDGRKTFYRDSVKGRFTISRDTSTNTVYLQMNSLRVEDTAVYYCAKGRAAGTFSSWGQGTLVTVSS the result was 170 nM (3 of 3 replicates). Variant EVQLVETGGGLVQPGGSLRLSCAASGFTLNSYGIFWVRQAPGKGPEWVSVIYSDGRETFYGDSVKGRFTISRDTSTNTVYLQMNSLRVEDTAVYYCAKGRAAVTFDSWGQGTLVTVSS gave 100 µM (1 of 3 replicates). Variant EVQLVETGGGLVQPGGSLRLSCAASGATLNSYGISWVRQAPGKGPEWVSVIYSDGRLTFYGDSVKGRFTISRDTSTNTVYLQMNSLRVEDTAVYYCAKGRAAGTFESWGQGTLVTVSS gave no signal (0 of 3 replicates). Variant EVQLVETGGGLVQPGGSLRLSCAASGFTLNSYGISWVRQAPGKGPEWVSVIYSDGRITFYGDWVKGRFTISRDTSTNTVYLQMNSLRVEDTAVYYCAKTRAAGTFDSWGQGTLVTVSS gave no signal (0 of 3 replicates). Variant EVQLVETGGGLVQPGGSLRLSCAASGFTLNSYGISWVRQAPGKGPEWVSVIYSDGRNTFYGDVVKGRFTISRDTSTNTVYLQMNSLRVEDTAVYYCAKVRAAGTFDSWGQGTLVTVSS showed no signal (0 of 3 replicates).

Variant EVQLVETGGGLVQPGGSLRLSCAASGFTLNSYGISWVRQAPGKGPEWVSGIYSDGRETFYGDSVKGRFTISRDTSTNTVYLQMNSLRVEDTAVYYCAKGRANGTFDSWGQGTLVTVSS gave 120 nM (1 of 3 replicates). Variant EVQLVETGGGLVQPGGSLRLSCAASGNTLNSYGISWVRQAPGKGPEWVSVIYSDGRCTFYGDSVKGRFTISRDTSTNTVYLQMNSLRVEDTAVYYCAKGRAAGTFLSWGQGTLVTVSS gave 1.9 µM (1 of 3 replicates).

The first 2 entries again:

| VH | apparent Kd | seen in |
|---|---|---|
| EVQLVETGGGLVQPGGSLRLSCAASGFTLNSYGIDWVRQAPGKGPEWVSVIYSDGRNTFYGDSVKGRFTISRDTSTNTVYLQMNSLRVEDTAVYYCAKGRATGTFDSWGQGTLVTVSS | 3.6 µM | 1/3 |
| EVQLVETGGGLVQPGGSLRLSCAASGDTLNSYGISWVRQAPGKGPEWVSVIISDGRLTFYGDSVKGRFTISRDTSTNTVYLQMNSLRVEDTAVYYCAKGRAAGTFDSWGQGTLVTVSS | no signal | 0/3 |

Parent in this assay: reference entry 4.4 nM, copy in this library 13 µM (one replicate of three). Empty control strains, which show no peptide, gave a signal in 15% of pairings with library AAYL49; the median was 11 µM and 95% of these signals were weaker than 680 nM. No background was subtracted.